Several values for one entry are separate records, joined by “and”; a condition that tells them apart may be missing. Equal entries are not always repeated.
Columns and labels:
[1] = system: immature human gametes; test: Lowering the HSA content of the maturation medium, pregnancy rates; format: cell-based; settings: content in the medium lowered from 5% to 0.5%; preliminary results
[2] = system: PCO patients; test: Impact of FSH priming on oocytes obtained for IVM, maturation rate, cleavage rate and pregnancy (Example 2); format: in vivo, human; settings: for MF-II (%): percentage of cumulus enclosed oocytes; for cleavage (%): percentage of mature MF-II oocytes
Text: Eighteen patients are recruited among PCO patients referred for IVF. Included in the study are all women with typical PCO patterns at ultrasound, which means more than ten follicles in one plane located subcapsulary in each ovary. Excluded are all patients with body weight more than 20% of normal for the same height and women with contradictions for pregnancy. Also excluded are patients with elevated prolactin and FSH value (>10 IU) on cycle day 3. The study is approved by the local ethical committee. All women particiin the study after written consent.
The women are randomly allocated to three groups according to their entrance in the study. Group I (n=6 cycles) receive no stimulation, Group II (n=6 cycles) receive rec-FSH from day 3 and given from 3 to 7 days, aspiration is performed within 24 hours after the last injection. In group III (n=8 cycles), stimulation with rec-FSH (Gonal-F) as in group II, but oocyte recovery is performed 48-72 hours after the last injection.
Immature oocyte collection is performed between cycle day 7 and 13 by use of an aspiraneedle from Cook Ltd described by Carl Wood. The aspiration pressure is reduced to 100 mmHg on the assumption that the immature cumulus or egg may be more susceptito mechanical injury, or the needle in a small follicle may directly damage the egg if the egg is sucked forcefully from a small volume of fluid into the end of the needle. The follicles are punctured. After aspiration the needle is flushed with Earles Balanced Salt solution with Hepes and bicabonate buffers plus heparin (100IU/ml) as described by Trounson et al.
The follicular aspirates are transferred in tubes to the laboratory and washed on an emfilter with a pore size of 70 μm. Erythrocytes and other small cells are washed through the filter and oocytes and larger fragments of cells are collected in Petri culture dishes. The immature oocytes are identified and graded based on the presence or abof cumulus cells as ether complete multilayered, sparse or nude.
Oocytes are matured in tissue culture medium 199 (TCM 199; Sigma) supplemented with Sodiumpyruvate 0.3mM, rec-FSH 0.075IU/ml (Gonal-F; Serono), hCG 0.05 IU/ml (Profasi; Serono), and albumin 1%. Later the medium is supplemented with oestradiol 1μg/ml, an increased concentration of HSA (5%) or serum from the patient (10%) instead of albumin.
Fertilization with ICSI is performed on all Metaphase II oocytes and the oocytes are checked for the presence of two pronuclei the day after insemination and cleavage of the 2PN-oocytes is registered on day 2 after insemination.
The statistical methods include Student´s t-test. A two-tailed p<0.05 is considered statistisignificant.

[3] = group 2: rec-FSH, aspiration without delay
[4] = group 2 with FSH priming compared to group 1 (unstimulated) and group 3
[5] = group 3 (FSH primed, aspirated with delay) compared to group 1
[6] = group 3: rec-FSH, aspiration 48-72 hours after last injection
[7] = the pregnant patient of group 3, stimulation for 3 days with 150 IU

Human Serum Albumin (HSA): Serum derived albumin supplement of the maturation medium
effect on pregnancy rates [1]: no effect on pregnancy rates

rec-FSH: Recombinant follicle stimulating hormone (Gonal-F; Serono) given to patients from cycle day 3
oocytes enclosed by cumulus that could be used for in vitro maturation ([2]; after FSH stimulation versus no stimulation): Significantly more
no oocytes aspirated ([2]; group 2: rec-FSH stimulation, aspiration without delay (within 24 hours after last injection), 6 patients): 28
MF-II no [2, 3]: 6
Pregnancy no [2, 3]: 0
Transfer no [2, 3]: 1
no oocytes for IVM [2, 3]: 26 and 26^1
MF-II (%) [2, 3]: 23%
cleavage (%) [2, 3]: 16%
cleavage rate, comparison between groups [2, 4]: significantly reduced
maturation rate, comparison between groups [2, 4]: significantly reduced
cleavage rate, comparison between groups [2, 5]: no difference
maturation rate, comparison between groups [2, 5]: significantly increased
time after which MF-II oocytes were seen (late maturation) ([2]; group 3, two patients with 48 hours delay between last injection and aspiration): 56 h
no oocytes aspirated ([2]; group 3: rec-FSH stimulation, oocyte recovery 48-72 hours after last injection, 8 patients): 40
MF-II no [2, 6]: 29
Transfer no [2, 6]: 8
cleavage no [2, 6]: 20
no oocytes for IVM [2, 6]: 35 and 35^1
MF-II (%) [2, 6]: 82%
cleavage (%) [2, 6]: 69%
immature oocytes retrieved [2, 7]: 9
oocytes cleaved [2, 7]: 5
oocytes matured [2, 7]: Six
